For 1 compound, Ki results are on record in patent publication US20070032418A1, “Small-molecule inhibitors of angiogenin and rnases and in vivo and in vitro methods of using same” (Ambion, Inc, priority 2003, published 2007).

Chains of the proteins cited; added tags and fusions are not shown. Residues count along the entry.
UniProt P03950, 25-147 limits assumed: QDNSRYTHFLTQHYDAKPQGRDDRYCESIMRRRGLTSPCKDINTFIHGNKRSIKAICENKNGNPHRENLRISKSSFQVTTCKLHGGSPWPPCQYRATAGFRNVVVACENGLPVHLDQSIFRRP

The assay deals with angiogenin (ANG) (Homo sapiens, UniProt P03950). In words: Inhibition of ANG ribonucleolytic activity, HPLC assay of oligonucleotide cleavage. The note with it: inhibition of ANG-catalyzed cleavage of an RNA oligonucleotide; 20 mM Hepes, 100 mM NaCl, 37° C.; tested form: drawn as sulfonate anion, counter-ion no.

With `O=C(Nc1ccc(/N=N/c2ccc3cc(S(=O)(=O)O)cc(S(=O)(=O)O)c3c2)cc1)c1ccc(/N=N/c2c(O)ccc3cc(S(=O)(=O)O)cc(S(=O)(=O)O)c23)cc1`, the inhibition constant Ki (as a rule, the dissociation constant of the complex between target and ligand, obtained from inhibition or displacement) was 5 µM.
